# Results published in publication PMC7051184, “C9orf72 arginine-rich dipeptide repeat proteins disrupt karyopherin-mediated nuclear import” (eLife, 2020).
# Key:
# RPS6 = assay: DPR aggregation assay and western blot, RPS6; type: biochemical, human; conditions: for Rps6 band density, % untr control: Fig 5-suppl 3C, normalized to untreated HEK on same membrane; for RPS6 band density, % control: normalized to untreated HEK cells on the same membrane;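 on Rps6 band density, % untr control: RNA rows contain added 20 µg total HEK RNA while no-RNA rows lack it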
# Experimental: (§1) Supernatant and pellet fractions (for all 5 DPRs, and control/buffer only) were prepared as in the nuclear transport assays, by adding 100 µM 10mers to 2.5 mg/ml HEK lysate in 100 µL TRB. Supernatants were boiled in Laemmli (BioRad) for 5 min. Pellets were boiled for 15 min followed by sonication in order to fully disperse aggregates for SDS-PAGE. Equal volumes of supernatant and pellet fractions were run on 4–12% Bolt Bis-Tris Plus gels (ThermoFisher), transferred to nitrocellulose membrane using an iBlot2 dry blotting system (ThermoFisher). Protein loading was analyzed by BLOT-Faststain (G-biosciences, St. Louis, MO), according to the manufacterers’ instructions. For immunodetection, membranes were blocked with 5% non-fat milk in TBST and probed by sequential incubation with the primary antibodies as detailed in the table below. Detection was by HRP-conjugated secondary antibodies/chemiluminescence using an ImageQuant LAS 4000 system (GE, Chicago, IL). To permit sequential probing of membranes without stripping, signals were quenched by incubation with prewarmed 30% H20_2 for 20 min ([Sennepin et al., 2009]). Band intensities were measured by ImageQuant software. For pellet vs. supernatant fractions, all were expressed as percent untreated control. For blots in Figure 1E, samples were run on 4–20% SDS PAGE minigels (ThermoFisher) and blotted to PVDF membranes (Immun-Blot PVDF, Bio-Rad) using the Bio-Rad TransBlot Turbo apparatus, and probed as above. The chemiluminescence signal was captured with a Bio-Rad ChemiDoc XRS+ digital imaging system.
# Ran = assay: DPR aggregation assay and western blot, Ran; type: biochemical, human; conditions: for Ran band density, Pellet / Ran band density, Supernatant: 100 µM 10mer in 2.5 mg/ml HEK lysate, normalized to untreated HEK; for Ran band density, % untr control: Fig 5-suppl 3C, normalized to untreated HEK on same membrane;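 on Ran band density, % untr control: RNA rows contain added 20 µg total HEK RNA while no-RNA rows lack it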
# Experimental: as §1
# importin β [1] = assay: Biochemical pulldown (GFP-Trap) for DPR-induced Rango-importin β dissociation; type: binding, human; conditions: increasing concentrations of DPRs
# Experimental: GFP-Trap magnetic beads (Chromotek, Planegg-Martinsried, Germany) were washed and resuspended in TTBS. At the end of incubation, 8 µl bead suspension was added to each sample and mixed by rotation for 15 min. The supernatant was removed and beads washed 3 times with TTBS before boiling in 20 µl SDS-PAGE sample buffer with 2% β-mercaptoethanol. Samples were separated by SDS-PAGE and anti-GFP western blot performed as detailed below to detect Rango. After detecting the ECL signal, membranes were stained with Coomassie Brilliant R250 to detect importin β. Background-subtracted signals were determined by Image Lab 6.01 (BioRad) and the Rango ECL signal normalized to the importin β signal within each lane.
# Supernatant and pellet fractions (for all 5 DPRs, and control/buffer only) were prepared as in the nuclear transport assays, by adding 100 µM 10mers to 2.5 mg/ml HEK lysate in 100 µL TRB. Supernatants were boiled in Laemmli (BioRad) for 5 min. Pellets were boiled for 15 min followed by sonication in order to fully disperse aggregates for SDS-PAGE. […] Protein loading was analyzed by BLOT-Faststain (G-biosciences, St. Louis, MO), according to the manufacterers’ instructions. […] Band intensities were measured by ImageQuant software. For pellet vs. supernatant fractions, all were expressed as percent untreated control. […]
# importin α = assay: DPR aggregation assay and western blot, ImpA; type: biochemical, human; conditions: 100 µM 10mer in 2.5 mg/ml HEK lysate, normalized to untreated HEK
# Experimental: as §1
# importin β [2] = assay: Bead halo assay, biotinylated importin β on neutravidin beads; type: binding, human; conditions: AF488-labeled; 1 mg/ml neuronal lysate added
# Experimental: To prepare biotinylated WT importin β-Avitag (pKW1982, pK1099), BL21DE3 cells (New England Biolabs, Ipswich, MA) were co-transfected with the respective plasmids together with pAC-biotin ligase (Avidity), followed by plating and growth in LB media containing ampicillin and chloramphenicol. After the 37°C cultures reached OD600nm + 0.4–0.6, the cultures were cooled to room temperature, supplemented with 100 µM D-biotin, and the expression was induced with 0.3 mM IPTG at room temperature for 8–11 hr (pKW762). Proteins were purified on Ni-NTA resin as described for the non-biotinylated importin β fragments.
# The bead halo assay was carried out as described with minor modifications ([Patel and Rexach, 2008]), using […] polystyrene beads coated with neutravidin (for biotinylated proteins) or glutathione (for GST-fusion proteins) (Spherotech, Lake Forest, IL). Beads were coated overnight at 4°C at saturating concentrations per manufacturers’ instructions and rinsed 2x in binding buffer (20 mM HEPES [pH 7.4], 150 mM KOAc, 2 mM Mg(OAc)2, 1 mM DTT, 0.1% Tween-20). Immediately prior to the assay, fluorescent bait proteins and beads were combined with 4x assay buffer (40 mM EDTA, 40 mg/ml BSA, 500 mM NaCl, and 0.2% Tween) to a total of 40 µL per well, in optical glass-bottom 96-well plates (Cellvis, Mountain View, CA). […]
# [3] = DPR aggregate formation in HEK lysate (pellet vs. supernatant, total protein); type: biochemical, human; conditions: 100 µM
# Experimental: as §1, with “For blots in Figure 1E, samples were run on 4–20% SDS PAGE minigels (ThermoFisher) and blotted to PVDF membranes (Immun-Blot PVDF, Bio-Rad) using the Bio-Rad TransBlot Turbo apparatus, and probed as above. The chemiluminescence signal was captured with a Bio-Rad ChemiDoc XRS+ digital imaging system.” left out
# Nup54 = assay: DPR aggregation assay and western blot, Nup54; type: biochemical, human; conditions: 100 µM 10mer in 2.5 mg/ml HEK lysate; Blot 1; normalized to untreated HEK
# Experimental: as §1, with “For blots in Figure 1E, samples were run on 4–20% SDS PAGE minigels (ThermoFisher) and blotted to PVDF membranes (Immun-Blot PVDF, Bio-Rad) using the Bio-Rad TransBlot Turbo apparatus, and probed as above. The chemiluminescence signal was captured with a Bio-Rad ChemiDoc XRS+ digital imaging system.” left out
# FUS = assay: DPR aggregation assay and western blot, FUS; type: biochemical, human; conditions: normalized to untreated HEK cells on the same membrane
# Experimental: as §1
# TDP-43 = assay: DPR aggregation assay and western blot, TDP-43; type: biochemical, human; conditions: normalized to untreated HEK cells on the same membrane
# Experimental: as §1
# Nup98 = assay: DPR aggregation assay and western blot, Nup98; type: biochemical, human; conditions: 100 µM 10mer in 2.5 mg/ml HEK lysate, normalized to untreated HEK
# Experimental: as §1
# hnRNPA2/B1 = assay: DPR aggregation assay and western blot, hnRNPA2/B1; type: biochemical, human; conditions: normalized to untreated HEK cells on the same membrane
# Experimental: as §1
# [4] = Pellet, no RNA (Untreated), blot 1
# [5] = Pellet, no RNA (Untreated), blot 2
# [6] = Supernatant, no RNA (Untreated), blot 1
# [7] = Supernatant, no RNA (Untreated), blot 2
compound,measurement,setting,value
N=C(N)NCCC[C@H](NC(=O)CNC(=O)[C@H](CCCNC(=N)N)NC(=O)CNC(=O)[C@H](CCCNC(=N)N)NC(=O)CNC(=O)[C@H](CCCNC(=N)N)NC(=O)CNC(=O)[C@H](CCCNC(=N)N)NC(=O)CNC(=O)[C@H](CCCNC(=N)N)NC(=O)CNC(=O)[C@H](CCCNC(=N)N)NC(=O)CNC(=O)[C@H](CCCNC(=N)N)NC(=O)CNC(=O)[C@H](CCCNC(=N)N)NC(=O)CNC(=O)[C@H](CCCNC(=N)N)NC(=O)CN)C(=O)O [GR10],"Rps6 band density, % untr control","RPS6; Pellet, RNA, blot 1",433.20%
same,"Rps6 band density, % untr control","RPS6; Pellet, RNA, blot 2",302.43%
same,"Rps6 band density, % untr control",RPS6; [4],423.46%
same,"Rps6 band density, % untr control",RPS6; [5],341.30%
same,"Rps6 band density, % untr control","RPS6; Supernatant, RNA, blot 1",7.91%
same,"Rps6 band density, % untr control","RPS6; Supernatant, RNA, blot 2",9.81%
same,"Rps6 band density, % untr control",RPS6; [6],2.94%
same,"Rps6 band density, % untr control",RPS6; [7],3.12%
same,"RPS6 band density, % control","RPS6; Pellet, Blot 1",304.8 % control
same,"RPS6 band density, % control","RPS6; Pellet, Blot 2",380.9 % control
same,"RPS6 band density, % control","RPS6; Supernatant, Blot 1",9.4 % control
same,"RPS6 band density, % control","RPS6; Supernatant, Blot 2",10.9 % control
same,"Ran band density, Pellet",Ran; Blot 1,340.6 % control
same,"Ran band density, Supernatant",Ran; Blot 1,119.5 % control
same,"Ran band density, Pellet",Ran; Blot 2,461.6 % control
same,"Ran band density, Supernatant",Ran; Blot 2,102.8 % control
same,"Ran band density, % untr control","Ran; Pellet, RNA, blot 1",234.84%
same,"Ran band density, % untr control","Ran; Pellet, RNA, blot 2",309.78%
same,"Ran band density, % untr control",Ran; [4],209.34%
same,"Ran band density, % untr control",Ran; [5],257.02%
same,"Ran band density, % untr control","Ran; Supernatant, RNA, blot 1",113.99%
same,"Ran band density, % untr control","Ran; Supernatant, RNA, blot 2",115.12%
same,"Ran band density, % untr control",Ran; [6],110.37%
same,"Ran band density, % untr control",Ran; [7],104.48%
same,Displacement of importin β from Rango (GFP nanobody bead co-immunoprecipitation),importin β [1],dose-dependent displacement of importin β from the sensor
same,"ImpA band density, Pellet",importin α; Blot 1,193.3 % control
same,"ImpA band density, Supernatant",importin α; Blot 1,76.6 % control
same,"ImpA band density, Pellet",importin α; Blot 2,205.4 % control
same,"ImpA band density, Supernatant",importin α; Blot 2,87.4 % control
same,Binding to importin β-coated beads,importin β [2],"all binding between GR10 and the beads, including importin β, was lost"
same,Depletion of NCT proteins from the supernatant,[3],not substantially depleted from the supernatant
same,"Nup54 band density, Pellet",Nup54,162.4 % control
same,"Nup54 band density, Supernatant",Nup54,87.0 % control
same,"FUS band density, % control","FUS; Pellet, Blot 1",51.8 % control
same,"FUS band density, % control","FUS; Pellet, Blot 2",25.7 % control
same,"FUS band density, % control","FUS; Supernatant, Blot 1",97.0 % control
same,"FUS band density, % control","FUS; Supernatant, Blot 2",123.4 % control
same,"TDP43 band density, % control","TDP-43; Pellet, Blot 1",671.3 % control
same,"TDP43 band density, % control","TDP-43; Pellet, Blot 2",218.4 % control
same,"TDP43 band density, % control","TDP-43; Supernatant, Blot 1",72.6 % control
same,"TDP43 band density, % control","TDP-43; Supernatant, Blot 2",58.6 % control
same,"Nup98 band density, Pellet",Nup98; Blot 1,119.0 % control
same,"Nup98 band density, Supernatant",Nup98; Blot 1,59.8 % control
same,"Nup98 band density, Pellet",Nup98; Blot 2,141.6 % control
same,"Nup98 band density, Supernatant",Nup98; Blot 2,58.7 % control
same,"hnRNPA2/B1 band density, % control","hnRNPA2/B1; Pellet, Blot 1",384.0 % control
same,"hnRNPA2/B1 band density, % control","hnRNPA2/B1; Pellet, Blot 2",231.4 % control
same,"hnRNPA2/B1 band density, % control","hnRNPA2/B1; Supernatant, Blot 1",98.7 % control
same,"hnRNPA2/B1 band density, % control","hnRNPA2/B1; Supernatant, Blot 2",57.3 % control
